Source: US20230000876A1, “TREATING CANCERS WITH A CYCLIN-DEPENDENT KINASE INHIBITOR” (Nuvation Bio Inc., priority 2021, published 2023)

System: breast cancer PDX model harboring ESR1^Y537S mutation
Experiment: Breast cancer PDX model harboring ESR1 Y537S mutation

CC(C)N1CCOc2c(F)cc(-c3nc(Nc4ccc(C5CCN(C)CC5)cn4)ncc3F)cc21 [Compound (I), 5-fluoro-4-(8-fluoro-4-isopropyl-3,4-dihydro-2H-benzo[b][1,4]oxazin-6-yl)-N-(5-(1-methylpiperidin-4-yl)pyridin-2-yl)pyrimidin-2-amine]
Tumor Volume (Mean ± SEM) (Group 5: Compound (I) 30 mg/kg PO qd, Day 0): 124 ± 3 mm^3 | Tumor Volume (Mean ± SEM) (Group 5: Compound (I) 30 mg/kg PO qd, Day 4): 115 ± 9 mm^3 | Tumor Volume (Mean ± SEM) (Group 5: Compound (I) 30 mg/kg PO qd, Day 6): 120 ± 8 mm^3 | Tumor Volume (Mean ± SEM) (Group 5: Compound (I) 30 mg/kg PO qd, Day 11): 102 ± 12 mm^3 | Tumor Volume (Mean ± SEM) (Group 5: Compound (I) 30 mg/kg PO qd, Day 14): 137 ± 24 mm^3 | Tumor Volume (Mean ± SEM) (Group 5: Compound (I) 30 mg/kg PO qd, Day 18): 173 ± 23 mm^3 | Tumor Volume (Mean ± SEM) (Group 5: Compound (I) 30 mg/kg PO qd, Day 21): 181 ± 24 mm^3 | Tumor Volume (Mean ± SEM) (Group 5: Compound (I) 30 mg/kg PO qd, Day 26): 199 ± 25 mm^3 | Tumor Volume (Mean ± SEM) (Group 5: Compound (I) 30 mg/kg PO qd, Day 29): 237 ± 30 mm^3 | Tumor Volume (Mean ± SEM) (Group 5: Compound (I) 30 mg/kg PO qd, Day 32): 245 ± 28 mm^3 | Tumor volume at the end of the study (compound (I) 30 mg/kg PO QD, fulvestrant 3 mg/dose SC q7d, RAD1901 30 mg/kg PO QD, vehicle 2425 mm^3): 245 mm^3

CC(=O)c1c(C)c2cnc(Nc3ccc(N4CCNCC4)cn3)nc2n(C2CCCC2)c1=O [Palbociclib, palbociclib]
Tumor Volume (Mean ± SEM) (Group 4: Palbociclib 25 mg/kg PO qd, Day 0): 124 ± 3 mm^3 | Tumor Volume (Mean ± SEM) (Group 4: Palbociclib 25 mg/kg PO qd, Day 4): 146 ± 11 mm^3 | Tumor Volume (Mean ± SEM) (Group 4: Palbociclib 25 mg/kg PO qd, Day 6): 200 ± 25 mm^3 | Tumor Volume (Mean ± SEM) (Group 4: Palbociclib 25 mg/kg PO qd, Day 11): 447 ± 57 mm^3 | Tumor Volume (Mean ± SEM) (Group 4: Palbociclib 25 mg/kg PO qd, Day 14): 632 ± 65 mm^3 | Tumor Volume (Mean ± SEM) (Group 4: Palbociclib 25 mg/kg PO qd, Day 18): 914 ± 69 mm^3 | Tumor Volume (Mean ± SEM) (Group 4: Palbociclib 25 mg/kg PO qd, Day 21): 1161 ± 122 mm^3 | Tumor Volume (Mean ± SEM) (Group 4: Palbociclib 25 mg/kg PO qd, Day 26): 1551 ± 188 mm^3 | Tumor Volume (Mean ± SEM) (Group 4: Palbociclib 25 mg/kg PO qd, Day 29): 1667 ± 185 mm^3

CCNCCc1ccc(CN(CC)c2cc(OC)ccc2[C@@H]2CCc3cc(O)ccc3C2)cc1 [RAD1901, elacestrant]
Tumor Volume (Mean ± SEM) (Group 3: RAD1901 30 mg/kg PO qd, Day 0): 124 ± 3 mm^3 | Tumor Volume (Mean ± SEM) (Group 3: RAD1901 30 mg/kg PO qd, Day 4): 123 ± 10 mm^3 | Tumor Volume (Mean ± SEM) (Group 3: RAD1901 30 mg/kg PO qd, Day 6): 138 ± 16 mm^3 | Tumor Volume (Mean ± SEM) (Group 3: RAD1901 30 mg/kg PO qd, Day 11): 199 ± 28 mm^3 | Tumor Volume (Mean ± SEM) (Group 3: RAD1901 30 mg/kg PO qd, Day 14): 305 ± 45 mm^3 | Tumor Volume (Mean ± SEM) (Group 3: RAD1901 30 mg/kg PO qd, Day 18): 382 ± 58 mm^3 | Tumor Volume (Mean ± SEM) (Group 3: RAD1901 30 mg/kg PO qd, Day 21): 482 ± 78 mm^3 | Tumor Volume (Mean ± SEM) (Group 3: RAD1901 30 mg/kg PO qd, Day 26): 574 ± 76 mm^3 | Tumor Volume (Mean ± SEM) (Group 3: RAD1901 30 mg/kg PO qd, Day 29): 696 ± 100 mm^3 | Tumor Volume (Mean ± SEM) (Group 3: RAD1901 30 mg/kg PO qd, Day 32): 801 ± 111 mm^3
